# Values quoted from earlier work, collected in PMC3102090, “Interaction between Amyloid Beta Peptide and an Aggregation Blocker Peptide Mimicking Islet Amyloid Polypeptide” (PLoS ONE, 2011).
# What was measured:
# [1] = test system: IAPP; settings: ref [13], [17]; cited from earlier work
# Text: (§1) One approach to inhibit an aggregation reaction is to re-design the self-recognition interface of peptide or protein molecules, in a manner that the modified molecule is still capable of interacting with the native form, but inhibits its further assembly into larger aggregates. This approach was successfully exploited for example in the case of Islet Amyloid Polypeptide (IAPP), [14]. IAPP is a hydrophobic strongly amyloidogenic peptide, which is produced in the pancreatic islet cells and plays, in the soluble monomeric form, a major role in glucose homeostasis. In certai ...
# [2] = test system: insulin; settings: ref [18], [19]; cited from earlier work
# Text: as §1
# [3] = test system: Aβ; settings: ref [18], cited from earlier work
# Text: as §1, with “homeostasis. […]” for “homeostasis.”, “agreement with their intrinsic aggregation propensities, the agg” for “certai”
smiles,measurement,setting,value
CC[C@H](C)[C@@H](C(=O)N[C@@H](CC(C)C)C(=O)N[C@@H](CO)C(=O)N[C@@H](CO)C(=O)N[C@H](C(=O)N[C@@H](CC(N)=O)C(=O)N[C@H](C(=O)NCC(=O)N[C@@H](CO)C(=O)N[C@@H](CC(N)=O)C(=O)N[C@H](C(=O)N[C@@H](Cc1ccc(O)cc1)C(N)=O)[C@@H](C)O)C(C)C)[C@@H](C)O)N(C)C(=O)[C@H](C)NC(=O)CN(C)C(=O)[C@H](Cc1ccccc1)NC(=O)[C@H](CC(N)=O)NC(=O)[C@H](CC(N)=O)NC(=O)[C@H](CO)NC(=O)[C@H](CO)NC(=O)[C@H](Cc1c[nH]cn1)NC(=O)[C@@H](NC(=O)[C@H](CC(C)C)NC(=O)[C@H](Cc1ccccc1)NC(=O)[C@H](CC(N)=O)NC(=O)[C@H](C)NC(=O)[C@H](CC(C)C)NC(=O)[C@H](CCCNC(=N)N)NC(=O)[C@H](CCC(N)=O)NC(=O)[C@@H](NC(=O)[C@H](C)NC(=O)[C@@H]1CSSC[C@H](NC(=O)[C@@H](N)CCCCN)C(=O)N[C@@H](CC(N)=O)C(=O)N[C@@H]([C@@H](C)O)C(=O)N[C@@H](C)C(=O)N[C@@H]([C@@H](C)O)C(=O)N1)[C@@H](C)O)C(C)C [IAPP-GI],inhibition of IAPP amyloid formation and cytotoxicity,[1],efficiently inhibits IAPP amyloid formation and cytotoxicity
same,effect on cytotoxic assembly of insulin,[2],block cytotoxic assembly of Aβ and insulin as well
same,effect on Aβ40 and Aβ42 fibrillogenesis and cytotoxicity,"[3]; low micromolar concentrations of Aβ and IAPP-GI, [38]",strong inhibitory effect
same,effect on cytotoxic assembly of Aβ,[3]; [19],block cytotoxic assembly of Aβ
